The assay deals with human CYP11B2 (Homo sapiens (Human), UniProt P19099). Nature of the assay: Inhibitory effect on hCYP11B2 (aldosterone production by mitochondrial fraction of V79 cells stably expressing human CYP11B2, HTRF). The class given is biochemical. To be noted: 0.5 μmol/L deoxycorticosterone, 150 μmol/L NADPH, 1.5-2 hours at room temperature. As to the method:
Experimental Example 1 (Inhibitory Effect on hCYP11B2)
The pcDNA3.1-human CYP11B2 plasmid was transfected into a Chinese hamster lung fibroblast V79 cell line to produce a cell line stably expressing human CYP11B2 gene.
The cells were cultured and grown in the Dulbecco's modified Eagle's/Ham's medium supplemented with 10% fetal bovine serum and 1% G418 disulfate solution under the environment of 37° C., 95% air, and 5% CO2, and the grown cells were harvested.
Then, the cells were fractionated to obtain mitochondria by reference to a method described in Chabre et al. JCE 86 M 85 (11) 4060-68, 2000. In particular, the cells suspended in a 5 mmol/L Tris-HCl buffer (pH 7.4) containing 250 mmol/L sucrose were homogenized in a Teflon (Registered Trademark) Potter Elvehjem homogenizer, and then the suspension was centrifuged (800×g, 15 min.). […]
The mitochondrial fraction diluted with a buffer containing 10 mmol/L KH2PO4, 10 mmol/L Tris, 20 mmol/L KCl, 25 mmol/L sucrose, 5 mmol/L MgCl2, and 0.05% bovine serum albumin was dispensed to a 96-well plate. […] An amount of the produced aldosterone in the incubated solution was determined by using HTRF (Homogeneous Time Resolved Fluorescence) method.
IC 50 (nmol/L) was calculated by analyzing the aldosterone production inhibition rate (%) of each concentration of compounds by non-linear regression to a logistic curve.
A general note: Time-resolved FRET reads energy transfer from a long-lived donor to a nearby acceptor.

Protein sequences, listed by entry. Tags and fused reporters are not part of them. Residues count along the entry.
UniProt P19099, 25-503: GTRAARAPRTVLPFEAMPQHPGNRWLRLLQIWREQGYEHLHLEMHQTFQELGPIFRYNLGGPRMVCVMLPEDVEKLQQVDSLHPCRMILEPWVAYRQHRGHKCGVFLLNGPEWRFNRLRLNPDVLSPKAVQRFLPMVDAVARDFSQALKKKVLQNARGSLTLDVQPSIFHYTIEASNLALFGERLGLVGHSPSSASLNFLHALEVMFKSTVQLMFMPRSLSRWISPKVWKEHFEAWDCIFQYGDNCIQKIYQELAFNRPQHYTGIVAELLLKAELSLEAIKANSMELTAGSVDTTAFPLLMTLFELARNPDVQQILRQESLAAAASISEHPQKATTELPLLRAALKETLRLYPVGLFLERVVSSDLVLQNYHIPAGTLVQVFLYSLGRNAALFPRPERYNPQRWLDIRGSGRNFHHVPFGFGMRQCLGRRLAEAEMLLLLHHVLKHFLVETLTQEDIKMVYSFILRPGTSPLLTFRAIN

A word on the IC50: it is the concentration that gives 50% inhibition. Turning to `CN(C)[C@H]1CC[C@H](NC(=O)CN2CCN(c3nncc(-c4ccc(F)cc4)n3)CC2)CC1` [Example 22, 3-[4-[[trans-4-(dimethylamino)cyclohexyl]carbamoylmethyl]piperazin-1-yl]-5-(4-fluorophenyl)-1,2,4-triazine], it took 17 nM to reach half-maximal inhibition (IC50).

In turn, `CN(C)[C@H]1CC[C@H](NC(=O)CN2CCN(c3nncc([C@H]4CC[C@H](C)CC4)n3)CC2)CC1` [Example 124, 3-[4-[[trans-4-(dimethylamino)cyclohexyl]carbamoylmethyl]piperazin-1-yl]-5-(trans-4-methylcyclohexyl)-1,2,4-triazine] registered an IC50 of 16 nM.

(Values after US10029993B2, “Disubstituted 1, 2, 4-triazine compound” (MITSUBISHI TANABE PHARMA CORPORATION, priority 2014, dated 2018).)
